# Measurements reported in PubChem BioAssay AID588621 (Sanford-Burnham Center for Chemical Genomics, 2011).
# Chains of the proteins cited; added tags and fusions are not shown. Lines headed by an entry give the natural chain unless they say otherwise; changes in a name come on top.
# UniProt P54829: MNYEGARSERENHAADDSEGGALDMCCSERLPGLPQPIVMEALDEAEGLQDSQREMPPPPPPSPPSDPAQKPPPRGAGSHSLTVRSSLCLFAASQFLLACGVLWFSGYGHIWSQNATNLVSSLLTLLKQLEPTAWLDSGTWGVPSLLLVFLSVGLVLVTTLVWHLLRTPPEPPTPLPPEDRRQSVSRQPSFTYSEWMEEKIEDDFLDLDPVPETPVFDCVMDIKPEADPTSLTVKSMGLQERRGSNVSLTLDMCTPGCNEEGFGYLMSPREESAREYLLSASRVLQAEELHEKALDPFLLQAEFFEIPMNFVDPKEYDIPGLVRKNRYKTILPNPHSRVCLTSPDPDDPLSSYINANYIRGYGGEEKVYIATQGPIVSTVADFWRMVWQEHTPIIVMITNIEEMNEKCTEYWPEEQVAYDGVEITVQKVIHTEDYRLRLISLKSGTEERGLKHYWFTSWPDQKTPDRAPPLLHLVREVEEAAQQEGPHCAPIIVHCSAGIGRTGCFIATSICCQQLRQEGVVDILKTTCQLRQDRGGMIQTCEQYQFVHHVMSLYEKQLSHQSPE
# The list shows a part of the results, in another mix than the full data. Activity calls are given as the source filed them.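 Rule for the calls: active = inhibition at 20 µM, scaled per plate between control wells, above about 37% (limit read from the data); inactive = the rest.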
# Target: Tyrosine-protein phosphatase non-receptor type 5 (Homo sapiens) (UniProt P54829)
# Assay: inhibition of human PTPN5 enzyme activity – biochemical, fluorescence intensity, uHTS, primary screen (AID 588621);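 note: 0% = DMSO with enzyme and substrate and 100% = substrate only without enzyme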
# Settings: recombinant STEP, OMFP fluorogenic substrate, at 20 µM, hits give high values
# Outline: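 Material: STEP (striatal-enriched tyrosine phosphatase) enzyme, cell-free; Compound dosing: 20 µM single dose in 1% DMSO; Technique: fluorescence read at 480 nm ex / 540 nm em; Times: reaction 20 min, ambient temperature; Medium: 50 mM Bis-Tris pH 6.0 with 2.5 mM DTT and 0.005% Tween 20; Also added: OMFP at 25 µM.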
row,Structure (SMILES),inhibition
1,Cc1ccc(NCCc2c([N+](=O)[O-])cc([N+](=O)[O-])cc2[N+](=O)[O-])cc1,inactive: 3.1%
2,CCCOP(=S)(Nc1nc(N)cc(=O)[nH]1)OCCC,inactive: -2%
3,Cc1cccc(OCC(=O)OC2CN3CCC2CC3)c1 (centres undefined),inactive: -5%
4,O=[As](O)(c1cccc(O)c1)c1cccc(O)c1,inactive: -3.4%
5,O=C(OC1CN2CCC1CC2)c1ccc(Cl)cc1 (centres undefined),inactive: -0.1%
6,O=[As](O)(O)c1cccnc1,inactive: 3.7%
7,COc1cc(C(=O)NCC2(N3CCOCC3)CCCCC2)cc(Cl)c1OC(C)C,inactive: 0.4%
8,CS(=O)(=O)c1ccc(Cl)c(NC(=O)COC(=O)C(O)(c2ccccc2)c2ccccc2)c1,inactive: -3.1%
9,CC(C)/C=N\N=C(\N)N[N+](=O)[O-],inactive: -1.2%
10,CN(C(=O)Cc1ccc(Cl)c(Cl)c1)[C@@H]1CCCC[C@H]1N1CCCC1,inactive: -0.5%
11,CC1(CBr)Cn2c(nc3ccccc3c2=O)S1 (centres undefined),inactive: -3.4%
12,COc1ccccc1CNC(=O)COC(=O)C(O)(c1ccccc1)c1ccccc1,inactive: 0.9%
13,O=P1(N(CCCl)CCCl)NCCC(C(F)(F)F)O1 (centres undefined),inactive: -3.4%
14,Clc1n[nH]nc1-c1nn[nH][15n]1,inactive: -4.7%
15,CC(C)(C)C(=O)NC(Sc1ncccn1)C(Cl)(Cl)Cl (centres undefined),inactive: -2.3%
16,O=P1(Nc2ccccn2)COc2ccccc2OC1,inactive: 0.2%
17,CCC1=CC2Cc3nc4ccc(Cl)cc4c(N)c3C(C1)C2 (centres undefined),inactive: -2.3%
18,CCOP(=O)(NC(=NC(C)c1ccccc1)NC(C)c1ccccc1)OCC (centres undefined),inactive: 1.5%
19,CCOP(=O)(Nc1ccc(C)cn1)OCC,inactive: 0.4%
20,CN(CCCl)Cc1cc(Cl)c(NC2=NCCN2)c(Cl)c1,inactive: -2.7%
21,Nc1cccc([As](=O)(O)c2ccccc2)c1,inactive: -2.5%
22,O=[As](O)(c1cccs1)c1cccs1,inactive: -2.4%
23,Cc1ccc(OCC(=O)OC2CN3CCC2CC3)cc1 (centres undefined),inactive: 3%
24,O=P1(Nc2ccc(Br)cn2)COc2ccccc2OC1,inactive: -2.6%
25,NS(=O)(=O)c1cccc(NC(=O)COC(=O)C(O)(c2ccccc2)c2ccccc2)c1,inactive: -3.1%

row,Structure (SMILES),inhibition
1,Cc1ccc(S(=O)(=O)N(CCCN)CCCc2c(C)nc(N)[nH]c2=O)cc1,inactive: 0.1%
2,O=P1(Nc2ncccn2)COc2ccccc2OC1,inactive: 0.7%
3,CN(C)C1(CNC(=O)c2ccc(S(C)(=O)=O)cc2)CCCCC1,inactive: -0.1%
4,O=C(/C=C/c1ccccc1)OC1CN2CCC1CC2 (centres undefined),inactive: -1.6%
5,CCCC1OP(=O)(Nc2ccccc2)OCC1CC (centres undefined),inactive: -0.9%
6,Cc1nn(-c2ccccc2)c2c1P(=O)(N1CCOCC1)N(C)C(c1ccccc1)=N2 (centres undefined),inactive: -0.4%
7,CC1CCC(C(C)C)C(OP(=O)(Nc2ccccn2)c2ccccc2)C1 (centres undefined),inactive: -1.2%
8,Cc1ccc(C(=O)OC2CN3CCC2CC3)cc1 (centres undefined),inactive: 0%
9,O=P(Nc1ccccn1)(c1cccc2ccccc12)c1cccc2ccccc12,inactive: 0%
10,Cc1cc(SC(NC=O)C(Cl)(Cl)Cl)ncn1 (centres undefined),inactive: -0.6%
11,O=[N+]([O-])c1ccc(Nc2ccc(Oc3ccc([N+](=O)[O-])cc3[N+](=O)[O-])cc2)c([N+](=O)[O-])c1,inactive: 1.4%
12,CCOC(=O)Nc1cccc([As](=O)(O)O)c1,inactive: -6.8%
13,COP(=O)(OC)N1CC1c1ccccc1 (centres undefined),inactive: 1.6%
14,CCCCOc1ccc(C(=O)NCC2(N3CCCCC3)CCCCC2)cc1OC,inactive: 0.3%
15,Cc1cc(SC(NC(=O)c2ccccc2)C(Cl)(Cl)Cl)nc(C(C)C)n1 (centres undefined),inactive: -2.1%
16,CCOC(=O)Nc1ccc([As](=O)(O)O)c(O)c1,inactive: 3.6%
17,O=C(O)C(O)c1ccc(N(CCCl)CCCl)cc1 (centres undefined),inactive: -1.2%
18,CC1CCNP(=O)(N(CCCl)CCCl)O1 (centres undefined),inactive: -4.7%
19,CCC(C)N(CC(C)C)C(=S)SC(NC(C)=O)C(Cl)(Cl)Cl (centres undefined),inactive: -1.2%
20,O=C(OC1CN2CCC1CC2)c1cccc([N+](=O)[O-])c1 (centres undefined),inactive: -0.3%
21,CSc1ccc(Nc2c([N+](=O)[O-])cc([N+](=O)[O-])cc2[N+](=O)[O-])cc1,inactive: 6.2%
22,CCOC(=O)c1ccc(NC(=O)C(C)(CCl)SC)cc1 (centres undefined),inactive: -5.4%
23,O=C(O)C(=O)c1ccc(N(CCCl)CCCl)cc1,inactive: -2.7%
24,O=C(COc1ccccc1)OC1CN2CCC1CC2 (centres undefined),inactive: 2.2%
25,O=C(Nc1ccncc1[N+](=O)[O-])c1ccc([N+](=O)[O-])cc1[N+](=O)[O-],inactive: 1.2%

row,Structure (SMILES),inhibition
1,COP1(=S)c2c(C)nn(CCC#N)c2N=C(c2ccc(F)cc2)N1C (centres undefined),inactive: -4.8%
2,COC(=O)C1(C)COP(=O)(N2CCCC2)OC1 (centres undefined),inactive: -1.3%
3,O=[N+]([O-])c1cc(Oc2ccc([N+](=O)[O-])cc2C(F)(F)F)cc([N+](=O)[O-])c1,inactive: 3.1%
4,COc1ccc(N/C(=N/P(=O)(N2CCOCC2)N2CCOCC2)N2CCOCC2)cc1,inactive: -0.4%
5,O=P1(N(CCCl)CCCl)Nc2ccccc2N1,inactive: -1.8%
6,O=P1(N(CCCl)CCCl)OCCCN1CCCl (centres undefined),inactive: -1.7%
7,COc1ccc2nc(NP(=O)(c3ccccc3)c3ccccc3)sc2c1,inactive: -0.2%
8,COc1cc(I)ccc1[As](=O)(O)O,inactive: -0.3%
9,Cc1c2c(nc3ccccc13)SC(C(Cl)Cl)C2 (centres undefined),inactive: 0.9%
10,O=C(OC1CN2CCC1CC2)C12CC3CC(CC(C3)C1)C2 (centres undefined),inactive: 7.4%
11,Cc1cc(=O)[nH]c(N[N+](=O)[O-])n1,inactive: -3.5%
12,CC(C)NC(=O)NP(=O)(Oc1ccccc1)Oc1ccccc1,inactive: 1.3%
13,O=C(OC1CN2CCC1CC2)c1cccc2[nH]cnc12 (centres undefined),inactive: -0.6%
14,CCN(CC)C(=S)SC(NC=O)C(Cl)(Cl)Cl (centres undefined),inactive: 3.5%
15,O=[N+]([O-])c1cc([N+](=O)[O-])c(-c2ccn[nH]2)s1,inactive: 0.2%
16,ClCCSc1nnc(-c2cccnc2)o1,inactive: 2%
17,COC(=O)C1(C)COP(=O)(N2CCCCCC2)OC1 (centres undefined),inactive: -4.8%
18,CC(C)c1ccc(OP(=O)(Nc2ccccn2)Oc2ccccc2F)cc1 (centres undefined),inactive: -3.4%
19,Cc1ccc(OP(=O)(Nc2ccc([N+](=O)[O-])cn2)Oc2ccc(C)cc2)cc1,inactive: -1.3%
20,Cc1ccc2nc3c(c(C)c2c1)CC(C(Cl)Cl)S3 (centres undefined),inactive: 2.5%
21,O=[As](O)(c1ccc(O)cc1)c1ccccc1O,inactive: -0.4%
22,C[As](=O)(O)c1cccc(C(=O)O)c1,inactive: -2%
23,O=[N+]([O-])c1ccc(-c2cc([N+](=O)[O-])c(O)c([N+](=O)[O-])c2)cc1,inactive: 10.9%
24,COc1cc(C(=O)NCC2(N3CCOCC3)CCCCC2)ccc1OCC(C)C,inactive: -0.5%
